# According to patent US10501780B2, “Compositions for in situ nucleic acid analysis” (APPLIED BIOSYSTEMS, LLC, priority 2007, dated 2019):
# The chains behind the UniProt entries cited, without tags or fusion partners. Residues count along the entry.
# UniProt P06873, 106-384: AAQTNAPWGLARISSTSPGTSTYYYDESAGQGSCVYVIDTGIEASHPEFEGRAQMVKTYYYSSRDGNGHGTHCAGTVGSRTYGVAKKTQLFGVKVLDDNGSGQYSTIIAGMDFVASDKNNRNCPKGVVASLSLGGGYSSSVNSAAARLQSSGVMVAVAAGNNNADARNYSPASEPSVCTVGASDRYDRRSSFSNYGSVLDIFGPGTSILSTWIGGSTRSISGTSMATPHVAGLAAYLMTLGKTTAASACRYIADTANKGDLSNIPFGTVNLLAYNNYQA
# Target: proteinase K (PK) (Parengyodontium album, UniProt P06873)
# Assay type: biochemical
# Settings: PK 600 ug/ml, increasing inhibitor, 3 min; RNaseALERT fluorescence at 520 nm
# Experimental: PK (600 ug/ml) was mixed with increasing amounts of test inhibitor and allowed to react for 3 min at room temperature. RNase A was added and the mixture was incubated for 10 min. The RNase A was mixed with RNaseALERT™ substrate (AMBION®, Catalog No. AM1964) and incubated for 10 min. The fluorescence of the RNaseALERT™ substrate was measured at 520 nm.
smiles,measurement,value
"O=S(=O)(F)Cc1ccccc1 [PMSF, phenylmethylsulfonylfluoride]",inhibition of PK at room temperature,capable of inhibiting PK
